Measured values taken from patent US6235717A, “Pharmaceutical compounds” (Glaxo Wellcome Inc., priority 1993, dated 2001).

By UniProt entry, the sequences of proteins in these tests, tags left out.
UniProt F1SU04, entry or part of it: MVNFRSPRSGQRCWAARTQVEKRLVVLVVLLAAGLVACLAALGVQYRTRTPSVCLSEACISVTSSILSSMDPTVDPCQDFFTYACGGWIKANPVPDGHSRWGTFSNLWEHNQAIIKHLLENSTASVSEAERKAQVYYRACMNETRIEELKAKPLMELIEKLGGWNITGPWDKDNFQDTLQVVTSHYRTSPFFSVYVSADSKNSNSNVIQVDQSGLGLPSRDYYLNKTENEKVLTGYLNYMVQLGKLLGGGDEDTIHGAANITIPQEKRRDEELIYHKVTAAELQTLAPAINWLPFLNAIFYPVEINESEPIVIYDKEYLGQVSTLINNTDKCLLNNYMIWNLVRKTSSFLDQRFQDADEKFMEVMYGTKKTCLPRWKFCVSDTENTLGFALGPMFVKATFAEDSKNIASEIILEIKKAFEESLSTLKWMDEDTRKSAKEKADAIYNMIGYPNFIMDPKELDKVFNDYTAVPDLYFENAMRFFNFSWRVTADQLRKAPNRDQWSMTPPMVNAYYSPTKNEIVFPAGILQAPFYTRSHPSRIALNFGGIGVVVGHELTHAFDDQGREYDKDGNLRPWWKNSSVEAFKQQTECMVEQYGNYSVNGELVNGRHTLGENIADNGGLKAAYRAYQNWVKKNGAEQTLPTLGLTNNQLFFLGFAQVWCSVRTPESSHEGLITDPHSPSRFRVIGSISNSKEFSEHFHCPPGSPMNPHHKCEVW

Target: endothelin converting enzyme (ECE) (Sus scrofa, UniProt F1SU04)
Experiment: "ECE" assay with porcine aortic "ECE" prep, fluorogenic substrate Suc-Ile-Ile-Trp-MCA
Format: biochemical
Details: pH 7
Method: IC50 values were determined as follows:
Porcine Aortic "ECE" Prep
Porcine aortas (22-25) were obtained fresh from a local slaughterhouse and delivered in cold PBS on ice. The aortas were cut open, rinsed with cold PBS and the endothelial cell layer scraped into cold PBS using a scalpel. The endothelial cells were pelleted by centrifugation, rinsed once with cold PBS, and repelleted. The pellet was lysed by addition of 10 volumes of 10 mM Tris-HCl, pH 7.0, containing protease inhibitors and DTS, followed by brief sonication and homogenization. The lysate was centrifuged at 100,000 g for 1 hour and the supernatant applied to a MONOQ FPLC anion exchange column equilibrated in 10 mM Tris-HCl, pH 7.0 (buffer A) which was then developed with an increasing gradient of NaCl in buffer A. The active fractions were aliquoted and stored at -70° C.
The ECE assay was performed in 96-well microplates in a total volume of 200μ/well. The assay cocktail contains 100 mM Tris-HCl, pH 7.0, 20 mM CaCl2, 80 μM substrate (Suc-Ile-Ile-Trp-MCA), enzyme and test compounds. […] The assay was incubated overnight at 37° C. and the fluorescence intensity caused by the release of AMC was determined using a fluorescence microplate reader (EX360 nm/EM460 nm). IC50 values for compounds were determined by constructing concentration-effect curves for the inhibition of enzyme activity. […]

IC50: 10 µM
Substance: N-Benzyloxycarbonyl-L-isoleucyl-L-isoleucine-L-N-[1-[1-hydroxy(1-oxiranyl)methyl-2-(phenyl)ethyllamide [Example 44]
